Test results as given in paper PMC6979384, “Characterization of the plant homeodomain (PHD) reader family for their histone tail interactions” (Epigenetics & Chromatin, 2020).

Legend:
Test in all cases: Histone peptide microarray
Format in all cases: binding, human
KDM5B (1) = conditions: sheet "Array Heatmap"; GST-tagged KDM5B (1); arrays performed twice, total replicate number n = 4
Text: (§1) To more comprehensively define the histone interactions of the 31 PHD readers identified from the domain microarray analyses, we probed each on an alternate microarray platform containing a library of 293 synthetic histone peptides with single or combinatorial PTMs (Additional file 2: Figure S4 and Additional file 3: Table S2).
(§2) The 31 GST-tagged PHD readers identified in the PHD finger domain array were expressed and purified as previously. Histone peptide arrays and peptide pulldown assays were conducted as recently described (specifically, the optimized protocol from Petell et al. for the former).
Supplementary file 13072_2020_328_MOESM3_ESM.xlsx: Additional file 3: Table S2. […] Excel Tab Peptide List is a compiled list of the entire 293 histone peptide library with amino acid sequence ranges. […] Each number corresponds to the peptide number designated in Peptide List. Excel Tab Average Signals is a compiled set of binding data: chromatin reader at 0.5 μM vs. entire 293 peptide library. Data is presented as the average and standard deviation of 4 replicates. The average signals are colored to indicate signal intensity with green being strong and white being weak/low. […] Key: red= stronger relative binding; blue = weaker relative binding. Excel Tab Array info summary is a table summarizing the domains, sequence coverage, array signal range, and noise for each of the GST-tagged readers assayed on the peptide microarrays.

AIRE (PP) = conditions: sheet "Array Heatmap"; GST-tagged AIRE (PP); arrays performed twice, total replicate number n = 4
Text: as §1, with “S2). […] In general, the 31 PHD fingers were confirmed to associate with the H3 tail with the same H3K4 methyl preferences as in the domain microarrays (Fig. 2; Additional file 3: Table S2). […] In addition, we confirmed the newly identified interactions observed with the domain microarrays for PHRF1 and TRIM66 (Fig. 2).” for “S2).”
as §2
(§3) Supplementary file 13072_2020_328_MOESM3_ESM.xlsx: Additional file 3: Table S2. Histone Peptide Microarray Results. Excel Tab Peptide List is a compiled list of the entire 293 histone peptide library with amino acid sequence ranges. Excel Tab Peptide Array Grid Map is a table representing the pattern in which peptides have been printed for the peptide microarray. Each number corresponds to the peptide number designated in Peptide List. Excel Tab Average Signals is a compiled set of binding data: chromatin reader at 0.5 μM vs. entire 293 peptide library. Data is presented as the average and standard deviation of 4 replicates. The average signals are colored to indicate signal intensity with green being strong and white being weak/low. […] Key: red= stronger relative binding; blue = weaker relative binding. Excel Tab Array info summary is a table summarizing the domains, sequence coverage, array signal range, and noise for each of the GST-tagged readers assayed on the peptide microarrays.

BAZ2B = conditions: sheet "Array Heatmap"; GST-tagged BAZ2B; arrays performed twice, total replicate number n = 4
Text: as §1, with “S2). […] In general, the 31 PHD fingers were confirmed to associate with the H3 tail with the same H3K4 methyl preferences as in the domain microarrays (Fig. 2; Additional file 3: Table S2). […] In addition, we confirmed the newly identified interactions observed with the domain microarrays for PHRF1 and TRIM66 (Fig. 2).” for “S2).”
as §2, §3

BPTF (PB) = conditions: sheet "Array Heatmap"; GST-tagged BPTF (PB); arrays performed twice, total replicate number n = 4
Text: as §1, with “S2). […] In general, the 31 PHD fingers were confirmed to associate with the H3 tail with the same H3K4 methyl preferences as in the domain microarrays (Fig. 2; Additional file 3: Table S2). […] In addition, we confirmed the newly identified interactions observed with the domain microarrays for PHRF1 and TRIM66 (Fig. 2).” for “S2).”
as §2, §3

CHD4 (PPCC) = conditions: sheet "Array Heatmap"; GST-tagged CHD4 (PPCC); arrays performed twice, total replicate number n = 4
Text: as §1, with “S2). […] In general, the 31 PHD fingers were confirmed to associate with the H3 tail with the same H3K4 methyl preferences as in the domain microarrays (Fig. 2; Additional file 3: Table S2). […] In addition, we confirmed the newly identified interactions observed with the domain microarrays for PHRF1 and TRIM66 (Fig. 2).” for “S2).”
as §2, §3

CHD5 (PCC) = conditions: sheet "Array Heatmap"; GST-tagged CHD5 (PCC); arrays performed twice, total replicate number n = 4
Text: as §1, with “S2). […] In general, the 31 PHD fingers were confirmed to associate with the H3 tail with the same H3K4 methyl preferences as in the domain microarrays (Fig. 2; Additional file 3: Table S2). […] In addition, we confirmed the newly identified interactions observed with the domain microarrays for PHRF1 and TRIM66 (Fig. 2).” for “S2).”
as §2, §3

CHD5 (PPCC) = conditions: sheet "Array Heatmap"; GST-tagged CHD5 (PPCC); arrays performed twice, total replicate number n = 4
Text: as §1, with “S2). […] In general, the 31 PHD fingers were confirmed to associate with the H3 tail with the same H3K4 methyl preferences as in the domain microarrays (Fig. 2; Additional file 3: Table S2). […] In addition, we confirmed the newly identified interactions observed with the domain microarrays for PHRF1 and TRIM66 (Fig. 2).” for “S2).”
as §2, §3

DIDO1 = conditions: sheet "Array Heatmap"; GST-tagged DIDO1; arrays performed twice, total replicate number n = 4
Text: as §1, with “S2). […] In general, the 31 PHD fingers were confirmed to associate with the H3 tail with the same H3K4 methyl preferences as in the domain microarrays (Fig. 2; Additional file 3: Table S2). […] In addition, we confirmed the newly identified interactions observed with the domain microarrays for PHRF1 and TRIM66 (Fig. 2).” for “S2).”
as §2, §3

DPF2 (PPC2W2) = conditions: sheet "Array Heatmap"; GST-tagged DPF2 (PPC2W2); arrays performed twice, total replicate number n = 4
Text: as §1, with “S2). […] In general, the 31 PHD fingers were confirmed to associate with the H3 tail with the same H3K4 methyl preferences as in the domain microarrays (Fig. 2; Additional file 3: Table S2). […] In addition, we confirmed the newly identified interactions observed with the domain microarrays for PHRF1 and TRIM66 (Fig. 2).” for “S2).”
as §2, §3

ING1 = conditions: sheet "Array Heatmap"; GST-tagged ING1; arrays performed twice, total replicate number n = 4
Text: as §1, with “S2). […] In general, the 31 PHD fingers were confirmed to associate with the H3 tail with the same H3K4 methyl preferences as in the domain microarrays (Fig. 2; Additional file 3: Table S2). […] In addition, we confirmed the newly identified interactions observed with the domain microarrays for PHRF1 and TRIM66 (Fig. 2).” for “S2).”
as §2, §3

ING2 = conditions: sheet "Array Heatmap"; GST-tagged ING2; arrays performed twice, total replicate number n = 4
Text: as §1, with “S2). […] In general, the 31 PHD fingers were confirmed to associate with the H3 tail with the same H3K4 methyl preferences as in the domain microarrays (Fig. 2; Additional file 3: Table S2). […] In addition, we confirmed the newly identified interactions observed with the domain microarrays for PHRF1 and TRIM66 (Fig. 2).” for “S2).”
as §2, §3

ING3 = conditions: sheet "Array Heatmap"; GST-tagged ING3; arrays performed twice, total replicate number n = 4
Text: as §1, with “S2). […] In general, the 31 PHD fingers were confirmed to associate with the H3 tail with the same H3K4 methyl preferences as in the domain microarrays (Fig. 2; Additional file 3: Table S2). […] In addition, we confirmed the newly identified interactions observed with the domain microarrays for PHRF1 and TRIM66 (Fig. 2).” for “S2).”
as §2, §3

ING4 = conditions: sheet "Array Heatmap"; GST-tagged ING4; arrays performed twice, total replicate number n = 4
Text: as §1, with “S2). […] In general, the 31 PHD fingers were confirmed to associate with the H3 tail with the same H3K4 methyl preferences as in the domain microarrays (Fig. 2; Additional file 3: Table S2). […] In addition, we confirmed the newly identified interactions observed with the domain microarrays for PHRF1 and TRIM66 (Fig. 2).” for “S2).”
as §2, §3

ING5 = conditions: sheet "Array Heatmap"; GST-tagged ING5; arrays performed twice, total replicate number n = 4
Text: as §1, with “S2). […] In general, the 31 PHD fingers were confirmed to associate with the H3 tail with the same H3K4 methyl preferences as in the domain microarrays (Fig. 2; Additional file 3: Table S2). […] In addition, we confirmed the newly identified interactions observed with the domain microarrays for PHRF1 and TRIM66 (Fig. 2).” for “S2).”
as §2, §3

KDM4C (TTP) = conditions: sheet "Array Heatmap"; GST-tagged KDM4C (TTP); arrays performed twice, total replicate number n = 4
Text: as §1, with “S2). […] In general, the 31 PHD fingers were confirmed to associate with the H3 tail with the same H3K4 methyl preferences as in the domain microarrays (Fig. 2; Additional file 3: Table S2). […] In addition, we confirmed the newly identified interactions observed with the domain microarrays for PHRF1 and TRIM66 (Fig. 2).” for “S2).”
as §2, §3

For H3K4me1 + K9me2: H3 1-15, the “Array Heatmap signal, KDM5B (1)” value (KDM5B (1)) was 0.6393, the “Array Heatmap signal, AIRE (PP)” value (AIRE (PP)) was 0.38 and the “Array Heatmap signal, BAZ2B” value (BAZ2B) was 0.3774. For the same substance, the “Array Heatmap signal, BPTF (PB)” value (BPTF (PB)) was 0.2979, the “Array Heatmap signal, CHD4 (PPCC)” value (CHD4 (PPCC)) was 0.5222 and the “Array Heatmap signal, CHD5 (PCC)” value (CHD5 (PCC)) was 0.7157. The “Array Heatmap signal, CHD5 (PPCC)” value (CHD5 (PPCC)) was 0.4552, the “Array Heatmap signal, DIDO1” value (DIDO1) was 0.7103 and the “Array Heatmap signal, DPF2 (PPC2W2)” value (DPF2 (PPC2W2)) was 0.6276. The “Array Heatmap signal, ING1” value (ING1) was 0.5404, the “Array Heatmap signal, ING2” value (ING2) was 0.6787 and the “Array Heatmap signal, ING3” value (ING3) was 0.4264. The “Array Heatmap signal, ING4” value (ING4) was 0.3915, the “Array Heatmap signal, ING5” value (ING5) was 0.2893 and the “Array Heatmap signal, KDM4C (TTP)” value (KDM4C (TTP)) was 0.4132.
